What is called IC50 is the midpoint of a concentration-inhibition curve.

Amino acid sequences for entries named in this document (tags omitted).
UniProt P22460, whole entry: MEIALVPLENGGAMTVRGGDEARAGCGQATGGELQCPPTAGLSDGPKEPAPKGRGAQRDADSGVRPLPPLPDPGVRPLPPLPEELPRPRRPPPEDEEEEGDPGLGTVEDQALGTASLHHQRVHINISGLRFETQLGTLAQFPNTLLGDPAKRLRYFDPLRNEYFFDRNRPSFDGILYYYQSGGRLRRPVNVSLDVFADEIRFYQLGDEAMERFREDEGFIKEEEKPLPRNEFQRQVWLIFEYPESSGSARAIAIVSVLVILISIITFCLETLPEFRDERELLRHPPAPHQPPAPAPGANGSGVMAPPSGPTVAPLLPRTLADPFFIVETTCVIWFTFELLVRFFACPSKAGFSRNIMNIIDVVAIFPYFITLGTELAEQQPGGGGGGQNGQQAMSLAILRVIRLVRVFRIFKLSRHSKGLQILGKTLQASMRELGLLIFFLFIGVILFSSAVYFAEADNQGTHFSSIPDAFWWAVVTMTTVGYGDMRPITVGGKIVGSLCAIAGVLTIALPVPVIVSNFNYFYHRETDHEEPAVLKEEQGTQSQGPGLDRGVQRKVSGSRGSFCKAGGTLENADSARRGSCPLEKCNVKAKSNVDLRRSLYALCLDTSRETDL

Structures are written as SMILES.

This assay has as its target Human Kv1.5 channels (Homo sapiens, UniProt P22460). The assay is described as follows: Kv1.5 currents in Xenopus oocytes, two-microelectrode voltage clamp. The note with it: human Kv1.5 expressed in Xenopus laevis oocytes; 500 ms voltage jumps to 0 mV and 40 mV; room temperature; percentage inhibition of control current fitted with Hill equation. The protocol:
Human Kv1.5 channels were expressed in xenopus oocytes. For this purpose, oocytes from Xenopus laevis were first isolated and defolliculated. Kv1.5 coding RNA synthesized in vitro was then injected into these oocytes. After Kv1.5 protein expression for 1-7 days, Kv1.5 currents were measured in the oocytes using the two-microelectrode voltage clamp technique. The Kv1.5 channels were activated here with 500 ms voltage jumps to 0 mV and 40 mV. The bath was flushed with a solution of the following: NaCl 96 mM, KCl 2 mM, CaCl2 1.8 mM, MgCl2 1 mM, HEPES 5 mM (titrated with NaOH to pH 7.4). These experiments were carried out at room temperature. The following were used for data collection and analysis: Geneclamp amplifier (Axon Instruments, Foster City, USA) and MacLab D/A converter and software (ADInstruments, Castle Hill, Australia). The compounds according to the invention were tested by adding them to the bath solution in different concentrations. The effects of the compounds were calculated as percentage inhibition of the Kv1.5 control current which was obtained when no compound was added to the solution. The data were then extrapolated using the Hill equation, in order to determine the inhibitory concentrations (IC50) for the respective compounds.
On to `COc1ccc(NS(=O)(=O)c2ccc(C)cc2)c(C(=O)NCCc2ccccn2)c1`, for which the IC50 was found to be 8 µM. Consider `CCN(C(=O)c1ccccc1NS(=O)(=O)c1ccc(OC)c(OC)c1)c1ccccc1`, for which the IC50 worked out at 3.5 µM.

In the case of `COc1ccc(NS(=O)(=O)c2ccc(C)cc2)c(C(=O)NCCc2ccco2)c1`, the IC50 is 3.2 µM.

The values are drawn from patent publication US20020193422A1, “Anthranilamides and methods of their use” (priority 2001, published 2002).
